The entries are a selection whose mix differs from that of the whole data set. Some tests of the compounds listed are not included; inactive here does not mean inactive elsewhere. The source made the active and inactive calls.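 The calls were made as follows: active = inhibition at 20 µM, scaled per plate between control wells, above about 37% (limit read from the data); inactive = the rest.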

By UniProt entry, the sequences of proteins in these tests, tags left out.
UniProt P54829, whole entry: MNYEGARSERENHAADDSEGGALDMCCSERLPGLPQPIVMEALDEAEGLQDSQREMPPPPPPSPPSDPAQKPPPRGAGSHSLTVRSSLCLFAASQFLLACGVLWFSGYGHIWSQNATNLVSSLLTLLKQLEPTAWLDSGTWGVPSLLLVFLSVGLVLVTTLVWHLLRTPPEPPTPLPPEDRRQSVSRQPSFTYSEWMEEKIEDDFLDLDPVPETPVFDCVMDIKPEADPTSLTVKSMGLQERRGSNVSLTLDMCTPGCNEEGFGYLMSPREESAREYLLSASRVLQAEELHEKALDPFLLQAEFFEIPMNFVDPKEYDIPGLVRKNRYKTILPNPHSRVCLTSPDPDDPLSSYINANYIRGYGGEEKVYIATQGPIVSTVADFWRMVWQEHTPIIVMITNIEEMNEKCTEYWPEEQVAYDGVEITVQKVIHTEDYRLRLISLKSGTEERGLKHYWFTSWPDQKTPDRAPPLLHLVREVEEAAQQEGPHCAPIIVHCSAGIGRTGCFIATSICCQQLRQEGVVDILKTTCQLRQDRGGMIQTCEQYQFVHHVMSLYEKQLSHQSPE

One may read the inhibition as the relative decrease from the control value, in per cent.

The target of the test is Tyrosine-protein phosphatase non-receptor type 5 (Homo sapiens) (UniProt P54829). Put plainly: STEP phosphatase inhibitors, primary screen, biochemical, fluorescence intensity, uHTS (AID 588621).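 Also: 0% = DMSO with enzyme and substrate and 100% = substrate only without enzyme.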 The settings on record: recombinant STEP, OMFP fluorogenic substrate, at 20 µM, hits give high values. The procedure, abridged:
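Material: STEP (striatal-enriched tyrosine phosphatase) enzyme, cell-free | Medium: 50 mM Bis-Tris pH 6.0 with 2.5 mM DTT and 0.005% Tween 20 | Read-out: Percent inhibition scaled to no-enzyme and uninhibited-enzyme controls, plate-pattern corrected | Signal: Fluorescence read at 480 nm ex / 540 nm em | Times: 20 min reaction, room temperature, in the dark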
With `COc1ccc(Br)c(C(=O)NCC2(N3CCCCC3)CCCCC2)c1`, the inhibition was inactive: 2.9%.

Consider `C=C(C)C#CC(O)(C(=O)OC1CCN(C)CC1)c1ccccc1` (stereo unspecified), for which the inhibition is inactive: 4.6%.

`CN(C)c1cccc(C(=O)NCC2(N(C)C)CCCCC2)c1`: the inhibition is inactive: -2.5%. As for `CC(C)Oc1ccc(C(=O)NCC2(N(C)C)CCCCC2)cc1`, the inhibition was inactive: 0.4%.

As for `O=C(OCCN1CCCC1)C(O)(c1ccccc1)c1ccccc1`, the inhibition was inactive: 1.6%.

For the molecule `O=C(OC1CN2CCC1CC2)C(CO)(c1ccccc1)c1ccccc1` (stereo unspecified), the inhibition is inactive: -1.3%. For `COc1cccc(C(=O)NCC2(N3CCCCC3)CCCCC2)c1`, the inhibition is inactive: -0.2%. Take `COc1ccc(Cl)cc1C(=O)NCC1(N(C)C)CCCCC1`: the inhibition is inactive: -0.4%. For `O=C(NCC1(N2CCCCC2)CCCCC1)c1cccc(Cl)c1` the value was inactive: -2.6%; for `CN(C)C1(CNC(=O)c2ccc(Br)cc2)CCCCC1`, inactive: -3%. With `COc1cc(C(=O)NCC2(N(C)C)CCCCC2)c([N+](=O)[O-])cc1OC`, the inhibition was inactive: -2.9%. Take `C=CCN1CCN(CCOC(=O)C(O)(c2ccccc2)c2ccccc2)CC1`: the inhibition is inactive: -0.6%. For `O=C(NCC1(N2CCCCC2)CCCCC1)c1cc(F)c(F)cc1Cl` the value was inactive: 1.1%; for `Cc1cc(C(=O)NCC2(N3CCCCC3)CCCCC2)ccc1[N+](=O)[O-]`, inactive: -3.3%.

`CCN1CCCC(OC(=O)C2(O)c3ccccc3C=Cc3ccccc32)C1` (stereo unspecified): the inhibition was inactive: -1.4%. Regarding `O=C(NCC1(N2CCCCC2)CCCCC1)c1cccc(Br)c1`, the inhibition was inactive: -1.4%. In the case of `COc1ccc(C(=O)NCC2(N(C)C)CCCCC2)cc1`, the inhibition is inactive: 1.3%. As for `Cc1ccccc1C(=O)NCC1(N2CCCCC2)CCCCC1`, the inhibition is inactive: 1%. For `CN(C)C1CCCC1OC(=O)C(O)(c1ccccc1)c1ccccc1` (stereo unspecified) the value was inactive: 0.2%; for `CN(C)c1ccc(C(=O)NCC2(N(C)C)CCCCC2)cc1`, inactive: -1%. As for `CC(C)N1C(=O)CC2(CCN(CCOC(=O)C(O)(c3ccccc3)c3ccccc3)CC2)C1=O`, the inhibition is inactive: 0.3%.

`CCN(CC)CC(C)C(C)OC(=O)C(O)(c1ccccc1)c1ccccc1` (stereo unspecified): the inhibition is inactive: -1.1%. For `COc1cc(SC)ccc1C(=O)NCC1(N(C)C)CCCCC1`, the inhibition was inactive: -0.2%. As for `Cc1ccc(C(=O)NCC2(N3CCCCC3)CCCCC2)cc1`, the figure is inactive: -0.1%; as for `O=C(NCC1(N2CCCCC2)CCCCC1)c1cc([N+](=O)[O-])ccc1Cl`, inactive: 14.5%; as for `CN1[C@@H]2CC[C@H]1CC(OC(=O)C(O)(c1ccccc1)c1ccccc1)C2` (stereo partly specified), inactive: -4%.

Values taken from PubChem BioAssay AID588621 (Sanford-Burnham Center for Chemical Genomics, 2011).
